Reference: PubChem BioAssay AID624380 (The Scripps Research Institute Molecular Screening Center, 2012)
This is a selection; strong and weak results do not stand in their true shares. Activity calls are given as the source filed them.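 How the source made its calls: active means mean activation above the mean of DMSO-only wells plus 3 SD (cut at about 0.5% in these data); inactive means the rest.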

Protein sequences, listed by entry. Tags and fused reporters are not part of them.
UniProt P35372, whole entry, looked up: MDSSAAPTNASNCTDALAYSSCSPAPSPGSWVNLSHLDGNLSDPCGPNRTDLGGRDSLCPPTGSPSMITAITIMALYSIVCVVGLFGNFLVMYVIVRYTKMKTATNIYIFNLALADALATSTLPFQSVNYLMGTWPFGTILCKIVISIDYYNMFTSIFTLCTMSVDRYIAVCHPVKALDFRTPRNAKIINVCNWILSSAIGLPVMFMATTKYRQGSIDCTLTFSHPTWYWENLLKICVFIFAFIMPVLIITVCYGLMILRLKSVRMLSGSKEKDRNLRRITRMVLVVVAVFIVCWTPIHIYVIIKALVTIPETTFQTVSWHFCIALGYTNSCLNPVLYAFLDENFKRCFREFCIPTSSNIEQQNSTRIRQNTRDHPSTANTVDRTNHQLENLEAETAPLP

These molecules were tested against Mu-type opioid receptor (Homo sapiens) (UniProt P35372) (assay: OPRM1 agonists via beta-arrestin recruitment, confirmation, counter-screen for mouse HTR2A agonist project, cell-based, luminescence, single concentration (AID 624380)). Settings: U2OS OPRM1 beta-arrestin PathHunter, at 9.3 µM, stronger effect = higher value, DMSO 0%, DAMGO 9.3 µM 100%.
How it was run: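 System: U2OS OPRM1 beta-arrestin beta-gal complementation cell line | Quantity: 1000 cells per well | Reagent: DAMGO reference agonist, 9.3 µM | Doses: Single-point 9.3 µM, 0.93% DMSO | Schedule: 3 h compound treatment, 37 °C, 1 h room-temperature reagent step | Signal: Chemiluminescence from reconstituted beta-galactosidase after detection reagent addition | Replication: Three wells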

Q: With `OCCNc1ncnc2c1ncn2[C@H]1CN(Cc2ccncc2)C[C@@H](CO)O1` as the molecule, how does the activation read?
A: inactive: -0.38%

Q: `COC(=O)[C@H](Cc1ccc(O)cc1)NC(=O)Cn1cnc2c(OCc3ccccc3)ncnc21` was tested. Which activation did it give?
A: inactive: -0.55%

Q: For `CN1CCN(c2ncnc3c2ncn3[C@H]2CN(Cc3ccncc3)C[C@@H](CO)O2)CC1`, which activation is on record?
A: inactive: -0.52%

Q: For `CCN(CC)CCn1c(NC(=O)c2ccc(Cl)cc2)nc2ccccc21`, which activation is on record?
A: inactive: -0.01%

Q: How did the activation turn out when `C[C@H](O)[C@@H]1CN2CCc3c([nH]c4ccccc34)[C@@H]2C[C@@H]1N(C)C(=O)Nc1ccc(Br)cc1` was run?
A: inactive: -0.36%

Q: With `COc1ccc(N)c([N+](=O)[O-])c1[N+](=O)[O-]` as the molecule, how does the activation read?
A: inactive: -0.72%

Q: For `C[C@@H](NC(=O)Cn1cnc2c(OCc3ccccc3)ncnc21)c1cccc2ccccc12`, which activation is on record?
A: inactive: -0.5%

Q: For `O=c1[nH]c2ccccc2n1C1CCN(C(c2ccccc2OC(F)(F)F)c2nnnn2-c2ccc3c(c2)OCCO3)CC1` (centres undefined), which activation is on record?
A: inactive: 0%

Q: How did the activation turn out when `S=C=Nc1cccc(C2(N3CCCCC3)CCCCC2)c1` was run?
A: inactive: -0.51%
